# Experimental data: patent US20150320705A1, “METHOD OF INHIBITING OR TREATING AMYOTROPHIC LATERAL SCLEROSIS WITH PHENOXYALKYLCARBOXYLIC ACIDS” (priority 2014, published 2015)
# System: SOD deficient flies
# Parameters: species or system Drosophila
# Conditions: in vivo
# Method: Drosophila males will be collected and keep on fly food for 24 h. Then flies will be transferred to vials containing 3-mm paper filter disks saturated with 250 μl of 1% sucrose containing 2 mM paraquat or 1% sucrose, 2 mM paraquat and the tested compound. The vials will be stored at 25° C. in the dark, and flies are enumerated after 24 h.
# Three replicas for each concentration will be performed in the same day and three replicas of the assay will be performed in different days.
# The experiment includes the analysis of four compound concentrations (10, 100, 250 and 1000 μM) and will evaluate 360 flies for each concentration (8 replicates×3 days with 15 flies each one). Resistance to paraquat treatment will be indicative of positive activity of the compound tested. See, FIG. 2.
# MN-001 was tested at concentrations of 0.08 mM, 0.8 mM, 8 mM (DMSO).
structure (smiles),measurement,value
Nc1nc2ccc(OC(F)(F)F)cc2s1 [riluzole],survival (or survivorship) percentages after paraquat exposure,increased this percentage
